In US8598120B2 (Amylin Pharmaceuticals, LLC, priority 2004, dated 2013):

Assay: Food intake assay in overnight fasted mice
Assay type: in vivo
Conditions: 25 nmol/kg intraperitoneal
Experimental: Female NIH/Swiss mice (8-14 weeks old) were group housed with a 12:12 hour light:dark cycle. Water and a standard pelleted mouse chow diet are available ad libitum, except as noted. Animals are fasted starting at approximately 1500 hrs, 1 day prior to experiment.
The effects of treatment on food intake are expressed as % change relative to control.

Substance	cumulative food intake compared to vehicle, 30 min [%]	cumulative food intake compared to vehicle, 60 min [%]	cumulative food intake compared to vehicle, 120 min [%]	cumulative food intake compared to vehicle, 180 min [%]
SCNTATCVLGRLSQELHRLQTYPRTNTGSNTY [Compound 102]	−58	−53	−45	
Isocaproyl-CNTATCVLGRLSQELHRLQTYPRTNTGSNTY (N-isocaproyl cap) [Compound 80]	−32	−28	−22	
N-isocaproyl-KCNTATCVLGRLSQELHRLQTYPRTNTGSNTY (N-isocaproyl cap) [Compound 73]	−51	−31	−23	−28
CNTATCVLGRLSQELHRLQTYPRTNTGSNTY [Compound 70]	−76	−64	−47	
CNTATCVLGRLSQELHRLQTYPRTNTGSNT [Compound 89]	−6	−13	−22	−20
